Patent publication US12612431B2, “Cyclic compounds for treating cancer” (University of South Florida, priority 2021, dated 2026)

Key:
[1] = test system: A549 lung tumor xenograft; experiment: Antitumor study in A549 lung tumor xenograft mouse model; assay type: in vivo, mice; conditions: 40 mg/kg intraperitoneal, every two days for seven times
[2] = test system: P-AKT; experiment: Western blot of P-AKT in A549 tumor lysates; assay type: in vivo, mice; conditions: C225 40 mg/kg
Experimental: Based upon the observed strong inhibition of cell proliferation and migration, the ability to inhibit EGFR cell signaling pathways in vitro, as well as the remarkable stability against proteolytic degradation, the antitumor activity of M-2-5 in a A549 lung tumor xenograft mouse model was evaluated in vivo. […] After another 6 days post injection, mice were sacrificed, and tumors were resected. […] To confirm the expression level of P-EGFR and downstream signaling, the total proteins were extracted from tumor tissues in each group and subjected to immunoblotting of P-EGFR, P-ARK and P-ERK. […] In addition, the phosphorylation level of EGFR in the A549 tumor sections was analyzed by immunohistochemical staining. […] Together with its similar function to monoclonal antibody and its high resistance toward proteolytic degradation, it could be further investigated for promising clinical anti-cancer drug development.
For the detection of phosphorylated EGFR, AKT and ERK in tumors in vivo, a portion of the tumor (80 mg) was immersed in 500 μL extraction buffer (50 mM Tris-HCl (pH 7.4), 150 mM NaCl, 1% NP-40, 0.25% Na-deoxycholate, Protease Inhibitor, SDS 0.1-2%), and tubes were vortexed briefly. […] The supernatant containing soluble proteins was transferred to a new tube and an aliquot was taken for the quantification and the further western blot analysis.

Substance: cetuximab [C225]
- tumor volume versus PBS group [1]: significant reduction in tumor volume
- P-AKT level in tumor tissue [2]: dramatic decrease
